In BindingDB's records for doi:10.1016/s0014-2999(97)01393-9 (Mayo Clinic, 1997):
Where a name gives a salt, the structure may show the parent alone.

Protein sequences, listed by entry. Tags and fused reporters are not part of them.
UniProt P31645, whole entry: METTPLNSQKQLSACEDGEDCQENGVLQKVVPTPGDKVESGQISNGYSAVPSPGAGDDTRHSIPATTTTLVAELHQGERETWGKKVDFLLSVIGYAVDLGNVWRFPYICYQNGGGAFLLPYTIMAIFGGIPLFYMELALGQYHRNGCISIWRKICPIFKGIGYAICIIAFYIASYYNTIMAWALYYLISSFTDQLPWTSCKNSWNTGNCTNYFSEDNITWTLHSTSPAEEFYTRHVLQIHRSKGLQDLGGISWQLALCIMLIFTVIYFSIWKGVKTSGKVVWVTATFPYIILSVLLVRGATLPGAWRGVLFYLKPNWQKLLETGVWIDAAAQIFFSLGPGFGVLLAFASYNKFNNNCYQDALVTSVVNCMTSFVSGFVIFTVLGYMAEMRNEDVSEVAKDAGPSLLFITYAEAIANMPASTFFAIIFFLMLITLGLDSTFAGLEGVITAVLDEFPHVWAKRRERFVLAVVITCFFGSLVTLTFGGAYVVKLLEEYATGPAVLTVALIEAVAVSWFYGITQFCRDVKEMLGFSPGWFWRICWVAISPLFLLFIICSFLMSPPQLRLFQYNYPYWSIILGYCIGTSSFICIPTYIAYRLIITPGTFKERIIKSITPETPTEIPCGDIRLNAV
UniProt P23975, whole entry: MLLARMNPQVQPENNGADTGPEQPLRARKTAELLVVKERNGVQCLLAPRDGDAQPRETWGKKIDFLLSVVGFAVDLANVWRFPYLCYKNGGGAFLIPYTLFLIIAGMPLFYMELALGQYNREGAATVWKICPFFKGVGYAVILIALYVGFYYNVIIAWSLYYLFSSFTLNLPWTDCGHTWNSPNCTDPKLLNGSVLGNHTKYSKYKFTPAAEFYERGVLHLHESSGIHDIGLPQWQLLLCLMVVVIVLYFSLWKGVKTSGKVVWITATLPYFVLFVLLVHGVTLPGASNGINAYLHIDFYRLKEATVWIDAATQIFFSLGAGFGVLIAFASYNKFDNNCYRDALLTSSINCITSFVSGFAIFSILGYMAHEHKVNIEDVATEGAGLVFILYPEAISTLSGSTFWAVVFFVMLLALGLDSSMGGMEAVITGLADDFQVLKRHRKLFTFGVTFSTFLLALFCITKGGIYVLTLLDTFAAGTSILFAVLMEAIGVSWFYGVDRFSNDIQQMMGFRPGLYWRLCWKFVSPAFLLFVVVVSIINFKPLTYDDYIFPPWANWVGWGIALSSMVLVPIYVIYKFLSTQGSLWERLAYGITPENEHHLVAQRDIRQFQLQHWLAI

What was measured:
[1] = target: Sodium-dependent serotonin transporter (Homo sapiens, UniProt P31645)
[2] = target: Sodium-dependent noradrenaline transporter (Homo sapiens, UniProt P23975)

Row | SMILES | Ki [1] [nM] | Ki [2] [nM]
1 | N[C@H]1CC[C@@H](c2ccc(Cl)c(Cl)c2)c2ccccc21 | 3 | –
2 | CCOc1ccccc1OCC1CNCCO1 (stereo unspecified) [2-(2-Ethoxy-phenoxymethyl)-morpholine(viloxazine)] | > 10000 | –
3 | CC(NC(C)(C)C)C(=O)c1cccc(Cl)c1 (stereo unspecified) [BUPROPION HYDROCHLORIDE] | – | > 10000
4 | CC(CC1c2ccccc2CCc2ccccc21)CN(C)C (stereo unspecified) [CAS_15686-37-0] | 1360 | –
5 | CCc1nn(CCCN2CCN(c3cccc(Cl)c3)CC2)c(=O)n1CC [NSC_40589] | 890 | –
6 | N[C@@H]1C[C@H]1c1ccccc1 [Tranylcypromine,(+)] | > 10000 | –
